{"source": "ChEMBL document CHEMBL3272349", "about": "“Quantitative structure-activity relationships of antimalarial and dihydrofolate reductase inhibition by quinazolines and 5-substituted benzyl-2,4-diaminopyrimidines” (J Med Chem, 1977)", "biological_target": "T1, Dihydrofolate reductase (Enterococcus faecium) (UniProt P00380)", "T1 sequence (whole entry)": "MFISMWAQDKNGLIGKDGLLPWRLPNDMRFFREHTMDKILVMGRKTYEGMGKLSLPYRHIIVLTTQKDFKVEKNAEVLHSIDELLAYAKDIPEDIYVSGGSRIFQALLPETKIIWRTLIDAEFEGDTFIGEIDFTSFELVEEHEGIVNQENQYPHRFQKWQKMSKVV", "data": [{"molecule": "Nc1nc(N)c2cc(Sc3ccc4ccccc4c3)ccc2n1", "values": [{"measurement": "log(1/I50)", "result": 8.15}]}]}
